Reference: ChEMBL document CHEMBL4145543, “Synthesis and pharmacological evaluation of 6,7-dimethoxy-1,2,3,4-tetrahydroisoquinoline derivatives as sigma-2 receptor ligands” (Eur J Med Chem, 2018)

The chains behind the UniProt entries cited, without tags or fusion partners.
UniProt Q5BJF2, whole entry: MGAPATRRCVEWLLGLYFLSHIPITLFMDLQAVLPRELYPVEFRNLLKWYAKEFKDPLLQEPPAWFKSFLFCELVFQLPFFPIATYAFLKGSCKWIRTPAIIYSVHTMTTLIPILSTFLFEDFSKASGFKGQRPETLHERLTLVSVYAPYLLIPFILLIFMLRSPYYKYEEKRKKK

Target: Sigma intracellular receptor 2 (Homo sapiens, UniProt Q5BJF2)
Test: Binding affinity to sigma-2 receptor (unknown origin)
Outline: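 Rat liver membrane homogenate (male Sprague-Dawley, 300-350 g; 300 µg) incubated with 5.65 nM [3H]DTG stock (~82 Ci/mmol) plus (+)-pentazocine (100 nM stock) masking sigma-1, 50 mM Tris-HCl pH 8.0, 25 °C, 120 min. Compounds from ethanol, 0.1-1000 nM, 10 points. Ice-cold 10 mM Tris termination, GF/B filtration, scintillation counting. Nonspecific: 5 µM DTG. IC50 by nonlinear regression, Ki via Cheng-Prusoff; ≥3 experiments, mean (SEM).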

COc1cccc2c1CCCC2CCCN1CCN(C2CCCCC2)CC1 (stereo unspecified)
Ki: 0.34 nM
